The results in this text go back to ChEMBL document CHEMBL1156083, “N,N-Diethyl-4-[(3-hydroxyphenyl)(piperidin-4-yl)amino] benzamide derivatives: the development of diaryl amino piperidines as potent delta opioid receptor agonists with in vivo anti-nociceptive activity in rodent models” (Bioorg Med Chem Lett, 2009).

Sequences of proteins named here, by UniProt entry; tags and fusion partners are left off.
UniProt P41143, whole entry: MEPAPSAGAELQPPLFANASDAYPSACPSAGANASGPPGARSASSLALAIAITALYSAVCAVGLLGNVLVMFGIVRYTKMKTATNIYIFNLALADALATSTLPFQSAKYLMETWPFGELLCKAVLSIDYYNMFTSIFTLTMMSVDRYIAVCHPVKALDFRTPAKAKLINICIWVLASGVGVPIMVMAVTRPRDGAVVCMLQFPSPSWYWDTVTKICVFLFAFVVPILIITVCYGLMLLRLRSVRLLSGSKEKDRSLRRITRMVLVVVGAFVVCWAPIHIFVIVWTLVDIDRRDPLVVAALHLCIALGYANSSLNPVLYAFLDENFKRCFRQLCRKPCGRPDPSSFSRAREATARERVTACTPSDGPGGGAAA
UniProt P35372, whole entry: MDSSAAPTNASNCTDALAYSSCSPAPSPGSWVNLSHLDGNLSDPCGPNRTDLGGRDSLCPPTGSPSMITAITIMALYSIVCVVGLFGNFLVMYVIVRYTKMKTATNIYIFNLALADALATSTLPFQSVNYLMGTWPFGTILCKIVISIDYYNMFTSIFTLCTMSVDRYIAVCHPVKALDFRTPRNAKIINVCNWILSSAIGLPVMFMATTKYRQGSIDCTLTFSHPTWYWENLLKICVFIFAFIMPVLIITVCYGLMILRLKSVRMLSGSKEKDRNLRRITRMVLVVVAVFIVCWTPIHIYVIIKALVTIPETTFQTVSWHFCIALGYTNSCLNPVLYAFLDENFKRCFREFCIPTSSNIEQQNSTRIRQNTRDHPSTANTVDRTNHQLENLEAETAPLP
UniProt P41145, whole entry: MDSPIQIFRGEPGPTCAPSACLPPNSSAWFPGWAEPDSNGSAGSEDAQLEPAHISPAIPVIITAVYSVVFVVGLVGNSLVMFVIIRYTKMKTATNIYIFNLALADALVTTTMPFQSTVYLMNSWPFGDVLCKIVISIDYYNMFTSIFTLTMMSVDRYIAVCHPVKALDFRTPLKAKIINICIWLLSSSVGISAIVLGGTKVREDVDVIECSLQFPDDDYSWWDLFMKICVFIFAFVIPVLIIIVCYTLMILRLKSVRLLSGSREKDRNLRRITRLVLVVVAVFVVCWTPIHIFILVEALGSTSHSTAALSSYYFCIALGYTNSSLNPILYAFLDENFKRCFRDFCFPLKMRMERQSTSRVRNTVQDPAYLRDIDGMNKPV

For assay [1], the target named is T1, Delta-type opioid receptor (Homo sapiens, UniProt P41143). The experiment in a line: Displacement of [125I]-[D-Ala2]deltorphin 2 from human cloned delta opioid receptor.
A further assay concerns the target Mu-type opioid receptor (Homo sapiens, UniProt P35372). Description: Displacement of [125I]FK33824 from human cloned mu opioid receptor. On the technique in general: In a radioligand displacement assay an active substance lowers the binding of a labelled ligand.
Assay [2] addresses Kappa-type opioid receptor (Homo sapiens, UniProt P41145). Description: Displacement of [125I]D-pro10-dynorphin from human cloned kappa opioid receptor.
The target of assay [3] is T1, Delta-type opioid receptor. The experiment in a line: Agonist activity at human delta opioid receptor by [35S]GTPgammaS binding assay. For orientation: GTPγS is a poorly hydrolysed GTP analogue; its binding reports G protein activation.
Assay [4] has as its system Mus musculus. Description: Antinociceptive activity against acetic acid-induced writhing response in iv dosed CD1 mouse after 20 mins.
The subject of assay [5] is Mus musculus. Description: Antinociceptive activity against acetic acid-induced writhing response in CD1 mouse at 25 umol/kg, iv after 20 mins.

As usually defined, the Ki is the equilibrium dissociation constant of an inhibitor or competing ligand from its target. Take `CCN(CC)C(=O)c1ccc(N(c2cccc(OC)c2)C2CCN(CCc3ccsc3)CC2)cc1`: the Ki in assay [1] was 18.2 nM; at Mu-type opioid receptor it was 1600 nM; in assay [2] it was 2550 nM.
For orientation: EC50 means the concentration at which the effect is half-maximal. Read a high EC50 as a less potent agent. As usually defined, the ED50 is the dose at which the effect has come halfway, by size or by number of responders. A lower ED50 goes with greater potency. `CCN(CC)C(=O)c1ccc(N(c2cccc(O)c2)C2CCN(CCc3ccccc3)CC2)cc1`: the Ki amounted to 0.42 nM in assay [1], 88 nM at Mu-type opioid receptor and 744 nM in assay [2]. This compound also showed an EC50 in assay [3] of 0.56 nM. In the assay with Mus musculus [4], it took a dose of 21.5 µmol/kg to reach the 50% effect level (ED50). In the assay on Mus musculus [5], this compound gave an Activity of 57%.
`CCN(CC)C(=O)c1ccc(N(c2cccc(O)c2)C2CCN(CCc3ccc(C)cc3)CC2)cc1`: the Ki in assay [1] came out at 0.64 nM; at Mu-type opioid receptor, 62 nM; in assay [2] it was 726 nM. The compound also displayed an EC50 in assay [3] of 1.14 nM.
Consider `CCN(CC)C(=O)c1ccc(N(c2cccc(O)c2)C2CCN(C)CC2)cc1`, for which the inhibitory constant (Ki) in assay [1] came out at 0.99 nM; on Mu-type opioid receptor it was 87 nM; in assay [2] it was 901 nM. This compound also registered an EC50 in assay [3] of 25.6 nM.
